Assay [1] has as its target mu opioid receptor (UniProt P33535). Briefly: Radioligand competitive binding, [3H]DAMGO.
In assay [2] the target is cloned human mu opioid receptor (Homo sapiens, UniProt P35372). Kind of assay: Inhibition of DAMGO-stimulated [35S]GTP-γ-S binding in cloned human opioid receptors. The assay is classed as biochemical. The note with it: DAMGO (10 μm)-stimulated, read-out: Apparent Functional Ki (nM ± SD) μ DAMGO. On the technique in general: GTPγS is a poorly hydrolysed GTP analogue; its binding reports G protein activation.

Chains of the proteins cited; added tags and fusions are not shown.
UniProt P35372, whole entry: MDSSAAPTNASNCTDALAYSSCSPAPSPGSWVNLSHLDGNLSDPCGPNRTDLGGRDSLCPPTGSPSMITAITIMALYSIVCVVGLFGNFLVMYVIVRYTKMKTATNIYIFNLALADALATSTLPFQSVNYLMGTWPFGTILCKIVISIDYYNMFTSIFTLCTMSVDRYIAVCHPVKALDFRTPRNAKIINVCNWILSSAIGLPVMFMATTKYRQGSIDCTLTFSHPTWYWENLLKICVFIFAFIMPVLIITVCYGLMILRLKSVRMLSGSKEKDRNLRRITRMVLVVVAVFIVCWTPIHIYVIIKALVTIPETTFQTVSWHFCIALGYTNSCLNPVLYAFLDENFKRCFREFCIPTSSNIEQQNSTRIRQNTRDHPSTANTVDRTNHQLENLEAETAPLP
UniProt P41143, whole entry: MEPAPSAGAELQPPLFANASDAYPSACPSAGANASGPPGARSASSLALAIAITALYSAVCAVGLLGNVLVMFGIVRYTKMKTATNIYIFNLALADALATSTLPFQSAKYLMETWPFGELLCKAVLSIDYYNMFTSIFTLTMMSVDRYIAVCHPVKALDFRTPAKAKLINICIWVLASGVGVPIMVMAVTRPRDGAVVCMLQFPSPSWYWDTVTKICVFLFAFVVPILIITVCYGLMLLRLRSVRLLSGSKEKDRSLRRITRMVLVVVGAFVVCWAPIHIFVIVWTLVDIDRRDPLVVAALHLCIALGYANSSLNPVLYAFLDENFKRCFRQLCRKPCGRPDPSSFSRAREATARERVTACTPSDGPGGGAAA

Assay [3] has as its target cloned human delta opioid receptor (Homo sapiens, UniProt P41143). Briefly: Inhibition of SNC-80-stimulated [35S]GTP-γ-S binding in cloned human opioid receptors. In kind it is biochemical. The note with it: SNC80 (10 μM)-stimulated (footnote b), read-out: Apparent Functional Ki (nM ± SD) δ DADLE.

Read-outs that look alike come from different tables or passages of the source.

On to `Oc1ccc2c3c1O[C@H]1c4[nH]c5c(c4C[C@@]4(O)[C@@H](C2)N(CC2CC2)CC[C@]314)C[C@@]1(O)[C@H]2Cc3ccc(O)c4c3[C@@]1(CCN2CC1CC1)[C@H]5O4` [6, nor-BNI, nor-binaltorphimine, reference compound], for which the Ki in assay [1] (read-out: K1 (nM ± SD) μ [3H]DAMGO) turned out to be 65.1 ± 5.6 nM; in assay [1] (read-out: K1 (nM ± SD) μ [3H]DAMGO, listed as nor-BNI (6)), 65 nM.
Turning to `CC(C)[C@@H](CN1CC[C@@](C)(c2cccc(O)c2)[C@@H](C)C1)NC(=O)[C@H]1Cc2ccc(O)cc2CN1` [Compound 14, (3R)-7-Hydroxy-N-((1S)-1-{[(3R,4R)-4-(3-hydroxyphenyl)-3,4-dimethyl-1-piperidinyl]methyl}-2-methylpropyl)-1,2,3,4-tetrahydro-3-isoquinolinecarboxamide], the Ki in assay [2] is 3.42 ± 0.83 nM; in assay [3] it was > 100 nM.

(Values after patent publication US6974824B2, “Kappa opioid receptor ligands” (Research Triangle Institute, priority 2001, dated 2005).)
